Experimental data published in patent US20050069522A1, “Combination pharmaceutical agents as inhibitors of HCV replication” (priority 2002, published 2005).

System: HCV replicon
Assay: Combination studies in the HCV replicon system (FRET assay)
Type: cell-based
[1] = combined with Compound 81, molar ratio 1:1 (first number Compound 81)
[2] = combined with Compound 81, molar ratio 1:2.5 (first number Compound 81)
[3] = combined with Compound 81, molar ratio 2.5:1 (first number Compound 81)

Intron A: IFN-α2b, Schering-Plough Corporation (Table 1)
response in combination with Compound 81 (all drug ratios, 50 and 75% effective levels): synergistic response
Overall Result (combined with Compound 81, molar ratio 1:1): Synergistic
CI at HCV inhibition of: 50% [1]: 0.62 +/− 0.08
CI at HCV inhibition of: 75% [1]: 0.55 +/− 0.09
Overall Result (combined with Compound 81, molar ratio 1:2.5): Synergistic
CI at HCV inhibition of: 50% [2]: 0.7 +/− 0.07
CI at HCV inhibition of: 75% [2]: 0.55 +/− 0.08
Overall Result (combined with Compound 81, molar ratio 2.5:1): Synergistic
CI at HCV inhibition of: 50% [3]: 0.65 +/− 0.08
CI at HCV inhibition of: 75% [3]: 0.51 +/− 0.07
EC50 in monotherapy (monotherapy, 72 h, FRET assay): 9 U/ml
